# Values of other authors in US6462193B1, “Hydroxyazepanes as inhibitors of glycosidase and HIV protease” (The Scripps Research Institute, priority 1999, dated 2002).
# Target: T1, α-mannosidase (Canavalia ensiformis, UniProt C0HJB3)
# T1 sequence (C0HJB3 1-981): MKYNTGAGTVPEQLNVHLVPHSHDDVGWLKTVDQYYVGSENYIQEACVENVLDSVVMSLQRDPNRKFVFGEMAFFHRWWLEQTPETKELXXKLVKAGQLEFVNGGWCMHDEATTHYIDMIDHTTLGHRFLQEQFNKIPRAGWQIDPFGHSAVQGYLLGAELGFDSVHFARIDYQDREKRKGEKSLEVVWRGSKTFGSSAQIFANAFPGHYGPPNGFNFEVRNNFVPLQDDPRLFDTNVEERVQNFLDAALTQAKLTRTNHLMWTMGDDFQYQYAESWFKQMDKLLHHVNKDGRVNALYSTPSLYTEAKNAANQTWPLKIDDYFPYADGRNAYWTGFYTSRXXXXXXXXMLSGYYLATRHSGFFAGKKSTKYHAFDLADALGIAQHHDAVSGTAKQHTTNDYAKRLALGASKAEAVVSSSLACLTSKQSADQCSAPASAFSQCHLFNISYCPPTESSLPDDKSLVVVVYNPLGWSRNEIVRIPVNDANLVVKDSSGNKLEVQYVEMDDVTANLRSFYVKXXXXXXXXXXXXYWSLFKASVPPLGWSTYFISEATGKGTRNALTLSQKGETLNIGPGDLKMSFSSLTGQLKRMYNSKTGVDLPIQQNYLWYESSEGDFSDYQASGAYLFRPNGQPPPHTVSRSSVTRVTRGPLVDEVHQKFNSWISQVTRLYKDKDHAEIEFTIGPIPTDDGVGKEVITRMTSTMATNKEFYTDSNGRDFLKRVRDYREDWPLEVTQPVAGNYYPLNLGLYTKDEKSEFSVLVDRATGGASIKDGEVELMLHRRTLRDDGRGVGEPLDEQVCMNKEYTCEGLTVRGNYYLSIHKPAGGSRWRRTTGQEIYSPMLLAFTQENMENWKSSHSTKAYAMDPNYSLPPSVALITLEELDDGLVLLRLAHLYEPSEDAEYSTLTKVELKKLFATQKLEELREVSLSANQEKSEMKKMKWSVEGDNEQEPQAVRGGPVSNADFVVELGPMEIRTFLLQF
# Conditions: literature value (Tulsiani et al. 1982); read-out: Ki as inhibitor of α-mannosidase; cited from earlier work
smiles,measurement,value
OC[C@H]1NC[C@@H](O)[C@@H](O)[C@@H]1O [1-deoxymannojirimycin],Ki,150 µM
